Literature values, collected in patent publication US20260166128A1, “HUMAN AMYLIN ANALOG, AND DERIVATIVE THEREOF AND USE THEREOF” (priority 2022, published 2026).

Details: background statement; cited from earlier work

Q: For `CC[C@H](C)[C@H](NC(=O)[C@@H]1CCCN1C(=O)CNC(=O)[C@H](Cc1ccccc1)NC(=O)[C@H](CC(N)=O)NC(=O)[C@H](CC(N)=O)NC(=O)[C@H](CO)NC(=O)[C@H](CO)NC(=O)[C@H](Cc1c[nH]cn1)NC(=O)[C@@H](NC(=O)[C@H](CC(C)C)NC(=O)[C@H](Cc1ccccc1)NC(=O)[C@H](CC(N)=O)NC(=O)[C@H](C)NC(=O)[C@H](CC(C)C)NC(=O)[C@H](CCCNC(=N)N)NC(=O)[C@H](CCC(N)=O)NC(=O)[C@@H](NC(=O)[C@H](C)NC(=O)[C@@H]1CSSC[C@H](NC(=O)[C@@H](N)CCCCN)C(=O)N[C@@H](CC(N)=O)C(=O)N[C@@H]([C@@H](C)O)C(=O)N[C@@H](C)C(=O)N[C@@H]([C@@H](C)O)C(=O)N1)[C@@H](C)O)C(C)C)C(=O)N[C@@H](CC(C)C)C(=O)N1CCC[C@H]1C(=O)N1CCC[C@H]1C(=O)N[C@H](C(=O)N[C@@H](CC(N)=O)C(=O)N[C@H](C(=O)NCC(=O)N[C@@H](CO)C(=O)N[C@@H](CC(N)=O)C(=O)N[C@H](C(=O)N[C@@H](Cc1ccc(O)cc1)C(N)=O)[C@@H](C)O)C(C)C)[C@@H](C)O` [Pramlintide], which half-life is on record?
A: Its half-life is “about 48 minutes”.
